Here are results for one molecule from patent publication US10167283B2, “β-lactamase inhibitors and uses thereof” (priority 2015, dated 2019).

Amino acid sequences for entries named in this document (tags omitted). Residues count along the entry.
UniProt Q9F663, 25-293, looked up, species assumed: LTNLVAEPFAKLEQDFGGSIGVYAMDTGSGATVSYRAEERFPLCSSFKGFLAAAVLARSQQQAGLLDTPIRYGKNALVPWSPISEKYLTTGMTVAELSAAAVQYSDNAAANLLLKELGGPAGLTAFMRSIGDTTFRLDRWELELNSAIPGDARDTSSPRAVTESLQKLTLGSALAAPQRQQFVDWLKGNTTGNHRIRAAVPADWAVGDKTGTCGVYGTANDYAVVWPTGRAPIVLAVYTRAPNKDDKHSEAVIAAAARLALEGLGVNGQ

In this assay the target is T1, KPC-2 (Klebsiella pneumoniae, UniProt Q9F663).
T1 construct: purchased
Kind of assay: β-lactamase inhibition, Nitrocefin hydrolysis. The assay is classed as biochemical. Here is the method:
Nitrocefin, a kind of cephalosporin antibiotics, is sensitive to most of β-lactamases, and changes in color after being hydrolyzed. The hydrolysis rate of Nitrocefin was measured by real-time recording corresponding absorbance of reaction system. β-Lactamase inhibitors could inhibit hydrolysis of the enzymes to Nitrocefin, and reduce hydrolysis rate. By measuring reaction rates in the same reaction system under different inhibitor concentrations, the IC50 (half maximal inhibitory concentration) values of inhibitors were calculated.
Nitrocefin was dissolved in DMSO to form a solution with concentration of 2 mM, which was sub-packaged and stored at −20° C. The concentration of purchased β-lactamases mother liquor was 1 mg/mL, and the mother liquor was dissolved in 50% glycerol. A part of mother liquor was taken and diluted by 1000 times in reaction solution, sub-packaged and stored at ˜20° C.
The compounds to be tested were dissolved in DMSO to form a mother liquor with concentration of 10 mM. If not used that day, the mother liquor was stored at −20° C. Its test final concentrations were: 100 μM, 25 μM, 6.25 μM, 1.563 μM, 390.6 nM, 97.66 nM, 24.41 nM, 6.10 nM, 1.53 nM, 0.381 nM, 0.095 nM.

For orientation: IC50 means the midpoint of a concentration-inhibition curve. Molecule `O=C(NC1CCNCC1)[C@@H]1CC[C@@H]2CN1C(=O)N2OS(=O)(=O)O` [MK-7655, reference compound] had an IC50 of 120 nM.
